This note sets out measurements from patent US9393232B2 (BeiGene, Ltd., priority 2013, dated 2016).

This assay addresses Recombinant human BRD4(1-477) (Homo sapiens (Human), UniProt O60885). The assay can be described thus: BRD4 TR-FRET biochemical IC50 assay. The class given is binding. The note with it: tetra-acetylated histone peptide. In general terms: TR-FRET usually uses a lanthanide donor and a delayed reading to cut background.
As a reminder, the IC50 is the midpoint of a concentration-inhibition curve. Take `Cc1noc(C)c1-c1ccc2c(c1)C(N[C@@H](C)CO)(c1ccccc1)C(=O)N2` (single isomer, unassigned) [Compound 2.9a]: the IC50 was found to be 860 nM.

Turning to `Cc1noc(C)c1-c1ccc2c(c1)C(N[C@@H](C)CO)(c1ccccc1)C(=O)N2` (single isomer, unassigned) [Compound 2.9b], the IC50 was 25 nM. As for `Cc1noc(C)c1-c1ccc2c(c1)C(N[C@H](C)CO)(c1ccccc1)C(=O)N2` (single isomer, unassigned) [Compound 2.10b], the IC50 amounted to 370 nM.

`Cc1noc(C)c1-c1ccc2c(c1)C(c1ccsc1)(N1CCC[C@H](O)C1)C(=O)N2` (single isomer, unassigned) [Compound 4.10b]: the IC50 is 19 nM.

As for `Cc1noc(C)c1-c1ccc2c(c1)C(c1ccccc1)(N1CCCC(O)C1)C(=O)N2` (stereo not drawn) [Compound 2.15, 5-(3,5-dimethylisoxazol-4-yl)-3-(3-hydroxypiperidin-1-yl)-3-phenylindolin-2-one], the 50% inhibitory concentration (IC50) was found to be 44 nM. The result for `Cc1noc(C)c1-c1ccc2c(c1)C(c1ccccc1)(N1CCC[C@H](O)C1)C(=O)N2` (stereo partly drawn) [Compound 2.16, 5-(3,5-dimethylisoxazol-4-yl)-3-((S)-3-hydroxypiperidin-1-yl)-3-phenylindolin-2-one] reads 19 nM; that for `Cc1noc(C)c1-c1ccc2c(c1)C(c1ccccc1)(N1CCC[C@@H](O)C1)C(=O)N2` (stereo partly drawn) [Compound 2.17, 5-(3,5-dimethylisoxazol-4-yl)-3-((R)-3-hydroxypiperidin-1-yl)-3-phenylindolin-2-one], 40 nM. Consider `COC(=O)[C@@H]1CCCN1C1(c2ccccc2)C(=O)Nc2ccc(-c3c(C)noc3C)cc21` (stereo partly drawn) [Compound 2.52, (2S)-1-Methyl 1-(5-(3,5-dimethylisoxazol-4-yl)-2-oxo-3-phenylindolin-3-yl)pyrrolidine-2-carboxylate], for which the half-inhibitory concentration (IC50) was determined as 190 nM. The result for `COC(=O)[C@H]1CCCN1C1(c2ccccc2)C(=O)Nc2ccc(-c3c(C)noc3C)cc21` (stereo partly drawn) [Compound 2.54, (2R)-Methyl 1-(5-(3,5-dimethylisoxazol-4-yl)-2-oxo-3-phenylindolin-3-yl)pyrrolidine-2-carboxylate] reads 220 nM.
